# Where “and” joins values, the source holds several entries; their conditions need not be identical. Identical values can stand only once. Shown are results outside the selection of hits, which stands elsewhere. Results filed as inconclusive are left out. Calls of active or inactive are those of the source. Calls come from the whole dose curve; as a rule, active = well fitted activation curve with a large enough effect; inconclusive = small, poorly fitted or top-dose-only effect; inactive = no such curve, though single readings can be large or run the other way.
# Assay: qHTS Assay for Enhancers of SMN2 Splice Variant Expression; note: % of control where 0% means no effect; nearly all actives have a fitted effect of over 55% in size
# Conditions: HEK293 SMN2-luciferase splicing reporter, luminescence, 30-36 h
Compound,"activity change, positive = activation (at 46.1 µM (top of the series))","activity change, positive = activation (at 20.6 µM (top of the series))"
COC(=O)C1=C(C)NC(C)=C(C(=O)OCCCN2CCC(c3ccccc3)(c3ccccc3)CC2)C1c1cccc([N+](=O)[O-])c1 (configuration not stated),inactive: -87.5% and inactive: -53.5%,–
Cc1cnc(C(=O)NCCc2ccc(S(=O)(=O)NC(=O)NC3CCCCC3)cc2)cn1,–,inactive: -1.46%

# — PubChem BioAssay AID1458 (National Center for Advancing Translational Sciences (NCATS), 2008)
